Biological target: CDK9/cyclin T1 (Homo sapiens, UniProt P50750)
Assay: CDK9/cyclin T1 kinase inhibition, LANCE assay
Type: biochemical
Conditions: read-out: CDK9/cyclin T1 Potency Grade, reaction time 60 minutes, 10 μM ATP, 10-dose IC50, compounds 35-126 (127-208 listed, method not stated)

Amino acid sequences for entries named in this document (tags omitted).
UniProt P50750, whole entry: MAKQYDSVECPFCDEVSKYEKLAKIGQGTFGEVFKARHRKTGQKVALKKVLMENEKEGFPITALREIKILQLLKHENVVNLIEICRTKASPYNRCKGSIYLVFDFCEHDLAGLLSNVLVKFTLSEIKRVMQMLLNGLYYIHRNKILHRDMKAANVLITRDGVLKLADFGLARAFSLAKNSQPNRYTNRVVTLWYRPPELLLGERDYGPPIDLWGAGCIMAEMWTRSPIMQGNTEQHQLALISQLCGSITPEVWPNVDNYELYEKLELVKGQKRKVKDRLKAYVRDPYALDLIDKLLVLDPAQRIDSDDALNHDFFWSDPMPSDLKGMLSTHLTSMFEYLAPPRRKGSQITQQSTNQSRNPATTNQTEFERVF
UniProt O60563, whole entry partner: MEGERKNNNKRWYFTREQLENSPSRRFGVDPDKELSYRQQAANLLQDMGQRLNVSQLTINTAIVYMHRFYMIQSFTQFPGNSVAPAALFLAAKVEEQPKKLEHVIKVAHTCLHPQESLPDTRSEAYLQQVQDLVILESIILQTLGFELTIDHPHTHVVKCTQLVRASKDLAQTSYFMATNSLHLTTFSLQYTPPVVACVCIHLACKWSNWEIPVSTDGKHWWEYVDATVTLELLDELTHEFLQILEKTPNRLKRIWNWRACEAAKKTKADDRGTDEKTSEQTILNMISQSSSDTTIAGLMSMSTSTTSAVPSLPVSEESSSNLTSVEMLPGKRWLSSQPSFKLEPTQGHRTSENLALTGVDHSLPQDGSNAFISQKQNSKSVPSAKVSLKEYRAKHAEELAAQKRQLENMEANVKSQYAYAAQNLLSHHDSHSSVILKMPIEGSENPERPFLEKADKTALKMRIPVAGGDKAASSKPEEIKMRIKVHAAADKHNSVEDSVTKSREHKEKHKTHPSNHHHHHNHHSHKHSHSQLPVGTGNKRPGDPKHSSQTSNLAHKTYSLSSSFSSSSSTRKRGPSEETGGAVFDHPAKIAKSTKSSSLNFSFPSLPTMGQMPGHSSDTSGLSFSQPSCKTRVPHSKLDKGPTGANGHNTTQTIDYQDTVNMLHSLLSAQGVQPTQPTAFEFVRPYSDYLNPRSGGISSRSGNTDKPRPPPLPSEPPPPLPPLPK

Row | IC50 [nM] | SMILES
1 | 1 to 500 | CC(C)c1cc(N[C@@H]2CC[C@@H](N(C)C=O)C2)n2nccc2n1 [Compound 146]
2 | 1 to 500 | CC(C)Cc1cc(N[C@H]2CC[C@H](N)C2)n2ncc(Cl)c2n1 [Compound 76]

Source: patent US11155560B2, “Substituted pyrazolo[1,5-a]pyrimidines for modulating CDK9 activity” (Kronos Bio, Inc., priority 2018, dated 2021)
